The text below walks through data of patent US12180193B2, “Accelerating fibrosarcoma protein degrading compounds and associated methods of use” (Arvinas Operations, Inc., priority 2020, dated 2024).

Protein sequences, listed by entry. Tags and fused reporters are not part of them.
UniProt P15056, whole entry G466V: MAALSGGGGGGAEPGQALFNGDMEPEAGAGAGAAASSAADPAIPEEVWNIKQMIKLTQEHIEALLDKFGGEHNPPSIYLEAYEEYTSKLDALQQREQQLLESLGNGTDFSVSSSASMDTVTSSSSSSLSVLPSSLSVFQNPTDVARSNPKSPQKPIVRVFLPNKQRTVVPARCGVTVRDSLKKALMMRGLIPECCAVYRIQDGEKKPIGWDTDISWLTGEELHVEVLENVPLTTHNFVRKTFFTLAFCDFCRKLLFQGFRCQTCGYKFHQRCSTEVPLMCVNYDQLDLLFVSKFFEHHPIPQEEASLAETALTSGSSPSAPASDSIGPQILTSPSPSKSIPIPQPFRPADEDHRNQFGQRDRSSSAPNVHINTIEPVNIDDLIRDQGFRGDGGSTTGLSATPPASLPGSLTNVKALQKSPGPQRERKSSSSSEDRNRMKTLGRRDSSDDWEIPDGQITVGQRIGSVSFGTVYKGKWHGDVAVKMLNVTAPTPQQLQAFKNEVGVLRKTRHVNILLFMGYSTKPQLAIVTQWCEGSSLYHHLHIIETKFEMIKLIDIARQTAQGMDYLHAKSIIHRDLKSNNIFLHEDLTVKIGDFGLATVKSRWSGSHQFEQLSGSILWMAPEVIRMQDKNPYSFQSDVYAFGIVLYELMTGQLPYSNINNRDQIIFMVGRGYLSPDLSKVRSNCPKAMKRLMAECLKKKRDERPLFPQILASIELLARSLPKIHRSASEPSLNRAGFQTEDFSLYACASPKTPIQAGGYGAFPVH
UniProt P15056, whole entry V600E: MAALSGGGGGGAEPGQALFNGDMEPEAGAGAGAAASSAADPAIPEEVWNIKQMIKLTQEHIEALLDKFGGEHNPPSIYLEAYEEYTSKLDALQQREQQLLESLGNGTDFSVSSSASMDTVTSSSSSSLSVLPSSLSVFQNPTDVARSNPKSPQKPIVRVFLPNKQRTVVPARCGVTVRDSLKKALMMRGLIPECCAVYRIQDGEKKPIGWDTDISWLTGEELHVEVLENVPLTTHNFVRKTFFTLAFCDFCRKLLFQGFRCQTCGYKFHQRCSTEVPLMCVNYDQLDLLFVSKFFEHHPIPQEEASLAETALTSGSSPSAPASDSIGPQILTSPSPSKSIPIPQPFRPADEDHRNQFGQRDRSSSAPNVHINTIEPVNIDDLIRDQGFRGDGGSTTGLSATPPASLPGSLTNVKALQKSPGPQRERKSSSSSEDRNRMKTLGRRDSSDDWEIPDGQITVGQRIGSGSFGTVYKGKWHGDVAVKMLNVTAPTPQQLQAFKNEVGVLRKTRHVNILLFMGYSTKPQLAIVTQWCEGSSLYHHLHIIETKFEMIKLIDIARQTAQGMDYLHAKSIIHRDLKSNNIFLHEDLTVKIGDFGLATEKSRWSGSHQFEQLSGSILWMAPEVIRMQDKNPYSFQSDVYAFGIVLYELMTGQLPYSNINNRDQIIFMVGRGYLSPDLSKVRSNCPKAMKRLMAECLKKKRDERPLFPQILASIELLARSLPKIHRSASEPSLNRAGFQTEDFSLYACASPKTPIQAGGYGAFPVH

For orientation: DC50 means the midpoint of the concentration-degradation curve.

One experiment addresses BRAF G466V (Homo sapiens, UniProt P15056, G466V). Kind of experiment: Cellular assay of target protein degradation, T-Rex 293 cells stably transfected with HA-BRAF G466V (HA immunofluorescence, high content imaging). The conditions noted are these: T-Rex 293 HA-BRAF G466V. The protocol: Protocol for a cellular assay of target protein degradation (T-Rex 293 cells). T-Rex 293 cells were purchased from Invitrogen (#R71007), and stably transfected with a pcDNA4/TO_HA-BRAF G466V construct, using 400 ug Zeocin for selection. G466V cells are plated in Dulbecco's Modified Eagle Medium (DMEM; Gibco #11965118) containing 10% fetal bovine serum (FBS; Gibco #16000044) and 0.75 ng/mL doxycycline (Selleckchem #4163) at a density of 5,000 cells/well in 50 μl on poly-D-lysine (PDL) coated, black clear bottom 96-well plates (Corning #354640) and incubated for 24 hours at 37° C. with 5% CO2. The following day 50 ul of tested compound was added at 2x concentration in DMEM with a final concentration ranging from 30 nM to 3 pM in 0.1% dimethylsulfoxide (DMSO), and incubated for 24 hours at 37° C. with 5% CO2. At the end of the experimental treatment, the media was flicked off and cells washed once with phosphate-buffered saline (PBS)++ (PBS with CaCl and MgCl) and gently replacing with 200 μl PBS++ per well. […] Plate was wash three times with 200 uL PBS++, and imaged on a high content reader (ImageXpress Micro XLS, Molecular Devices).
(§1) The concentration of exemplary compound that leads to half maximal degradation (DC50) as well as the maximum degradation observed (Dmax, conventionally expressed as a percentage of control), which are below in Table 2 for the exemplary compounds of Table 1.

The next experiment deals with BRAF V600E (Homo sapiens, UniProt P15056, V600E). Kind of experiment: Cellular assay of target protein degradation, T-Rex 293 cells stably transfected with HA-BRAF_V600E (HA immunofluorescence, high content imaging). As to conditions: T-Rex 293 HA-BRAF V600E. The protocol:
Protocol for a cellular assay of target protein degradation (T-Rex 293 cells). T-Rex 293 cells were purchased from Invitrogen (#R71007), and stably transfected with a pcDNA4/TO_HA-BRAF_V600E construct, using 400 ug Zeocin for selection. V600e cells are plated in Dulbecco's Modified Eagle Medium (DMEM; Gibco #11965118) containing 10% fetal bovine serum (FBS; Gibco #16000044) and 1 ng/mL doxycycline (Selleckchem #4163) at a density of 5,000 cells/well in 50 μl on poly-D-lysine (PDL) coated, black clear bottom 96-well plates (Corning #354640) and incubated for 24 hours at 37° C. with 5% C02. The following day 50 ul of tested compound was added at 2x concentration in DMEM with a final concentration ranging from 1 μM to 0.1 nM in 0.1% dimethylsulfoxide (DMSO), and incubated for 24 hours at 37° C. with 5% CO2. At the end of the experimental treatment, the media was flicked off and cells washed once with phosphate-buffered saline (PBS)++ (PBS with CaCl and MgCl) and gently replacing with 200 μl PBS++ per well. […] Plate was wash three times with 200 uL PBS++, and imaged on a high content reader (ImageXpress Micro XLS, Molecular Devices).
as §1

Take `O=C1CCC(N2Cc3cc([C@@H](O)CN4CC5(C4)CN(c4ccc(-c6cnc7[nH]cc(C(=O)c8c(F)ccc(NS(=O)(=O)N9CC[C@@H](F)C9)c8F)c7c6)cc4)C5)ccc3C2=O)C(=O)N1` (stereo partly shown): the “BRaf G466V DMax” value at BRAF G466V (maximum degradation observed) is on record as “A (A ≥ 70)”. Also, the DC50 is < 1 nM on BRAF G466V (read-out: BRaf G466V DC50, half maximal degradation) and 5 to 50 nM on BRAF V600E (read-out: BRaf V600E DC50, half maximal degradation). Besides, the “BRaf V600E DMax” value at BRAF V600E (maximum degradation observed) is given as “A (A ≥ 70)”.
